Values quoted from earlier work as cited in patent US20210315817A1, “C[…] SELF-EMULSION SYSTEMS FOR INFUSED COMPOSITIONS” (HEXO […]., priority 2018, published 2021).

Conditions: individual emulsifier HLB value

d-alpha-tocopherol polyethyleneglycol 1000 succinate [Vitamin E TPGS]
Emuls. HLB: 8.00
